# Measurements: PubChem BioAssay AID1159607 (Small Molecule Screening Facility, UW Madison, 2016)
# Only a part is listed here, and it is no random draw. Calls of active or inactive are those of the source. Cut-off read from the data, not from the text of the source: active = FP signal below about 40; inactive = the rest.
# Tested on: RMI core complex (RMI1/RMI2) binding to FANCM MM2 peptide, human
# Experiment: disruptors of RMI1/RMI2 association with MM2 peptide – biochemical, fluorescence polarization, human, primary screen (AID 1159607)
# Details: RMI core complex with F-MM2 peptide, at 33 µM, hits give low values
row,SMILES,FP signal (polarization)
1,Cc1ccccc1NC1CC(C)(C)NC(C)(C)C1,inactive: 55
2,CC(C)N1CCC(N(C(=O)Cc2ccccc2)c2ccc(Cl)cc2)CC1,inactive: 61
